Experimental data from US20250195530A1, “POLQ INHIBITORS” (ASTRAZENECA AB, priority 2022, published 2025).

Protein sequences, listed by entry. Tags and fused reporters are not part of them. Residues count along the entry.
UniProt O75417, 1780-2590: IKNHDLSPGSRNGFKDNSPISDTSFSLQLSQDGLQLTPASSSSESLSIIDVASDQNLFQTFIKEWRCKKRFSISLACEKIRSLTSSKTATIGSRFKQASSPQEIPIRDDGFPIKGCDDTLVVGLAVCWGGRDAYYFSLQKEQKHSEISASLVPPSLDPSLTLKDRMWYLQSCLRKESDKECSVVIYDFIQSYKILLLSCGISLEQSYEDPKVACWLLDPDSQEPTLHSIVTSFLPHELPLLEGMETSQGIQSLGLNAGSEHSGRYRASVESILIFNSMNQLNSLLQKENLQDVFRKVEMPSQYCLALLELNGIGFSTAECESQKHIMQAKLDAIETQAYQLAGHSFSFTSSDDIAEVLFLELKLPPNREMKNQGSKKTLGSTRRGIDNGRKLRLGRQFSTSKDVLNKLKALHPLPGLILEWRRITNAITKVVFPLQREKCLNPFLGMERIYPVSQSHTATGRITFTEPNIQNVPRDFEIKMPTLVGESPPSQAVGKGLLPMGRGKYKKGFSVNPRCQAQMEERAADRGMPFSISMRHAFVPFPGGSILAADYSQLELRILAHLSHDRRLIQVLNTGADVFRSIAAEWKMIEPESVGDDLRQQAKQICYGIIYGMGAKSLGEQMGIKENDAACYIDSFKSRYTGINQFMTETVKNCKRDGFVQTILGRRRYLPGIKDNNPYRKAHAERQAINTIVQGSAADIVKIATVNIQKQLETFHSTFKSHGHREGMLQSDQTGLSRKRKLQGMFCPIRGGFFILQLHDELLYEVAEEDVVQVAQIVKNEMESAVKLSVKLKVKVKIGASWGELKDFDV

Biological target: isolated polymerase domain (I1780-V2590) of DNA polymerase theta (Polθ) (Homo sapiens (Human), UniProt O75417)
Assay: biochemical

SMILES	IC50 [nM]
Cc1ccnc(Cn2c(-c3ccc(C(=O)N4CC5(CCN5)C4)cc3Cl)nc3c(OC4(C)CC4)ncnc32)c1 [Example T429, (3-chloro-4-(6-(1-methylcyclopropoxy)-9-((4-methylpyridin-2-yl)methyl)-9H-purin-8-yl)phenyl)(1,6-diazaspiro[3.3]heptan-6-yl)methanone]	3.98
Cc1nn(C)cc1Cn1c(-c2ccc(CC(N)=O)cc2Cl)nc2c(OC3(C)CC3)ncnc21 [Example T33, 2-(3-chloro-4-(9-((1,3-dimethyl-1H-pyrazol-4-yl)methyl)-6-(1-methylcyclopropoxy)-9H-purin-8-yl)phenyl)acetamide]	501
Cc1ccnc(Cn2c(-c3ccc(OCC(=O)N4CCC(F)CC4)cc3Cl)nc3c(OC4(C)CC4)ncnc32)c1 [Example T553, 2-(3-chloro-4-(6-(1-methylcyclopropoxy)-9-((4-methylpyridin-2-yl)methyl)-9H-purin-8-yl)phenoxy)-1-(4-fluoropiperidin-1-yl)ethan-1-one]	5.01
Cc1ccnc(Cn2c(-c3ccc(OCC(=O)N(C)C4COC4)cc3Cl)nc3c(OC4(C)CC4)ncnc32)c1 [Example T480, 2-(3-chloro-4-(6-(1-methylcyclopropoxy)-9-((4-methylpyridin-2-yl)methyl)-9H-purin-8-yl)phenoxy)-N-methyl-N-(oxetan-3-yl)acetamide]	10
COCc1cc(OCCN2CCN(C)CC2)ccc1-c1nc2c(OC3(C)CC3)ncnc2n1Cc1ccccc1 [Example T612, 9-benzyl-8-(2-(methoxymethyl)-4-(2-(4-methylpiperazin-1-yl)ethoxy)phenyl)-6-(1-methylcyclopropoxy)-9H-purine]	25.1
Cc1cnc(Cn2c(-c3ccc(OC4CCCNCC4)cc3Cl)nc3c(OC4(C)CC4)ncnc32)s1 (single isomer, unassigned) [Example T243, 2-((8-(4-(azepan-4-yloxy)-2-chlorophenyl)-6-(1-methylcyclopropoxy)-9H-purin-9-yl)methyl)-5-methylthiazole]	15.8
Cc1ccnc(Cn2c(-c3ccc(OCC(=O)NCCO)cc3Cl)nc3c(OC4(C)CC4)ncnc32)c1 [Example T226, 2-(3-chloro-4-(6-(1-methylcyclopropoxy)-9-((4-methylpyridin-2-yl)methyl)-9H-purin-8-yl)phenoxy)-N-(2-hydroxyethyl)acetamide]	10
CC1(Oc2ncnc3c2nc(-c2ccc(N4CCNCC4)cc2Cl)n3Cc2ccccc2)CC1 [Example C7, 9-benzyl-8-(2-chloro-4-(piperazin-1-yl)phenyl)-6-(1-methylcyclopropoxy)-9H-purine]	2.51
Cc1ccnc(Cn2c(-c3ccc(OCC(=O)N4CCC[C@H]4CO)cc3Cl)nc3c(OC4(C)CC4)ncnc32)c1 [Example T576, (S)-2-(3-chloro-4-(6-(1-methylcyclopropoxy)-9-((4-methylpyridin-2-yl)methyl)-9H-purin-8-yl)phenoxy)-1-(2-(hydroxymethyl)pyrrolidin-1-yl)ethan-1-one]	10
Cc1ccnc(Cn2c(-c3ccc(NC(=O)[C@@H](C)O)cc3Cl)nc3c(OC4(C)CC4)ncnc32)c1 [Example T121, (R)-N-(3-chloro-4-(6-(1-methylcyclopropoxy)-9-((4-methylpyridin-2-yl)methyl)-9H-purin-8-yl)phenyl)-2-hydroxypropanamide]	5.01
Cc1ccnc(Cn2c(-c3ccc(N4CCNC(=O)C4)cc3Cl)nc3c(OC4(C)CC4)ncnc32)c1 [Example T201, 4-(3-chloro-4-(6-(1-methylcyclopropoxy)-9-((4-methylpyridin-2-yl)methyl)-9H-purin-8-yl)phenyl)piperazin-2-one]	6.31
CC1(Oc2ncnc3c2nc(-c2ccc(OCCN4CCNCC4)cc2C(F)(F)F)n3Cc2cc(Cl)ccn2)CC1 [Example T453, 9-((4-chloropyridin-2-yl)methyl)-6-(1-methylcyclopropoxy)-8-(4-(2-(piperazin-1-yl)ethoxy)-2-(trifluoromethyl)phenyl)-9H-purine]	10
Cc1ccnc(Cn2c(-c3ccc(CC(=O)N4C[C@@H](O)[C@H](F)C4)cc3Cl)nc3c(OC4(C)CC4)ncnc32)c1 [Example T422, 2-(3-chloro-4-(6-(1-methylcyclopropoxy)-9-((4-methylpyridin-2-yl)methyl)-9H-purin-8-yl)phenyl)-1-((3R,4R)-3-fluoro-4-hydroxypyrrolidin-1-yl)ethan-1-one]	10
Cc1cccc(Cn2c(-c3ccc(OCCC(C)C(=O)O)cc3Cl)nc3c(OC4(C)CC4)ncnc32)c1C (racemic) [Example T570, 4-(3-chloro-4-(9-(2,3-dimethylbenzyl)-6-(1-methylcyclopropoxy)-9H-purin-8-yl)phenoxy)-2-methylbutanoic acid]	5.01
CC(=O)N1CCN(CCOc2ccc(-c3nc4c(OC5(C)CC5)ncnc4n3Cc3cc(C)ccn3)c(Cl)c2)CC1 [Example T607, 1-(4-(2-(3-chloro-4-(6-(1-methylcyclopropoxy)-9-((4-methylpyridin-2-yl)methyl)-9H-purin-8-yl)phenoxy)ethyl)piperazin-1-yl)ethan-1-one]	7.94
CC1(Oc2ncnc3c2nc(-c2ccc(OCCCc4nnn[nH]4)cc2Cl)n3Cc2cccc(Cl)c2)CC1 [Example T164, 8-(4-(3-(1H-tetrazol-5-yl)propoxy)-2-chlorophenyl)-9-(3-chlorobenzyl)-6-(1-methylcyclopropoxy)-9H-purine]	6.31
Cc1cccc(C)c1Cn1c(-c2ccc(OCCC(C)C(=O)O)cc2Cl)nc2c(OC3(C)CC3)ncnc21 (racemic) [Example T571, 4-(3-chloro-4-(9-(2,6-dimethylbenzyl)-6-(1-methylcyclopropoxy)-9H-purin-8-yl)phenoxy)-2-methylbutanoic acid]	7.94
CC(C)Oc1ccc2c(c1)nc(-c1ccc(OCCC3CCCN3C)cc1Cl)n2Cc1ccccc1 (single isomer, unassigned) [Example A8, 1-benzyl-2-(2-chloro-4-(2-(1-methylpyrrolidin-2-yl)ethoxy)phenyl)-5-isopropoxy-1H-benzo[d]imidazole]	2
CNCCCOc1ccc(-c2nc3c(OC4(C)CC4)ncnc3n2Cc2ncc(C)s2)c(Cl)c1 [Example T74, 3-(3-chloro-4-(6-(1-methylcyclopropoxy)-9-((5-methylthiazol-2-yl)methyl)-9H-purin-8-yl)phenoxy)-N-methylpropan-1-amine]	5.01
Cc1ccnc(Cn2c(-c3ccc(OCC(=O)N4CCC[C@@H]4CO)cc3Cl)nc3c(OC4(C)CC4)ncnc32)c1 [Example T579, (R)-2-(3-chloro-4-(6-(1-methylcyclopropoxy)-9-((4-methylpyridin-2-yl)methyl)-9H-purin-8-yl)phenoxy)-1-(2-(hydroxymethyl)pyrrolidin-1-yl)ethan-1-one]	10
Cc1ccnc(Cn2c(-c3ccc(N)cc3Cl)nc3c(OC4(C)CC4)ncnc32)c1 [Example T3, 3-chloro-4-(6-(1-methylcyclopropoxy)-9-((4-methylpyridin-2-yl)methyl)-9H-purin-8-yl)aniline]	7.94
CC1(Oc2ncnc3c2nc(-c2ccc(N4CCC(N)CC4)cc2Cl)n3Cc2cc(Cl)ccn2)CC1 [Example T230, 1-(3-chloro-4-(9-((4-chloropyridin-2-yl)methyl)-6-(1-methylcyclopropoxy)-9H-purin-8-yl)phenyl)piperidin-4-amine]	5.01
